Literature values as cited in patent publication US20170198359A1, “METHODS AND COMPOSITIONS FOR TREATMENT OR DIAGNOSIS OF CANCERS RELATED TO GABRA3” (The Wistar Institute of Anatomy and Biology, priority 2016, published 2017).

Test system: metastatic breast cancer
Details: metastatic breast cancer patients with minimal residual disease after chemotherapy or non-progressing during endocrine therapy; cited from earlier work

B1: Recombinant interferon-β: Recombinant interferon-β (IFN-β) (protein, UniProt P01574 22-187, looked up)
Interferon beta: MSYNLLGFLQRSSNFQCQKLLWQLNGRLEYCLKDRMNFDIPEEIKQLQQFQKEDAALTIYEMLQNIFAIFRQDSSSTGWNETIVENLLANVYHQINHLKTVLEEKLEKEDFTRGKLMSSLHLKRYYGRILHYLKAKEYSHCAWTIVRVEILRNFYFINRLTGYLRN
- clinical benefits and overall survival: improve
